Data as given in US8211714B2, “Characterization of molecules” (Analiza, Inc., priority 2001, dated 2012).

Experiment: Partitioning of human, bovine and porcine insulin in aqueous two-phase systems
Assay type: physicochemical
Protocol: Human recombinant insulin was purchased from ICN Biomedicals Inc. (Aurora, Ohio, USA), bovine and porcine insulins were purchased from Calbiochem Corporation (San Diego, Calif., USA) and used without further purification. […] Stock solutions of all insulins in 0.009M HCl were prepared and titrated with 0.01M NaOH to pH 6.0 with the final protein concentration of ca. 1.0 mg/ml. Stock solution of human insulin, stock solution of porcine insulin, and stock solution of bovine insulin were added to an aqueous two-phase system as described below.

Row | Substance | Partition coefficient K-value, Dex-Ficoll-NaCl—NaPB (11.74 wt.% Dextran-69, 17.51 wt.% Ficoll-70, 0.15M NaCl, 0.01 M sodium phosphate buffer pH 7.4) | Partition coefficient K-value, Dex-PEG-NaClO4—NaPB (12.16 wt.% Dextran-69, 6.05 wt.% PEG-6000, 0.43M NaClO4, 0.01 M sodium phosphate buffer pH 7.4) | Partition coefficient K-value, Dex-PEG-NaSCN—NaPB (12.16 wt.% Dextran-69, 6.05 wt.% PEG-6000, 1.26M NaSCN, 0.01 M sodium phosphate buffer pH 7.4) | Partition coefficient K-value, Dex-Ficoll-NaSCN—NaPB (13.67 wt.% Dextran-69, 18.34 wt.% Ficoll-70, 0.33M NaSCN, 0.01 M sodium phosphate buffer pH 7.4) | Partition coefficient K-value, Dex-Ficoll-NaCl—NaPB (pH 7.4) | Partition coefficient K-value, Dex-Ficoll-NaSCN—NaPB (pH 7.4) | Partition coefficient K-value, Dex-PEG-NaClO4—NaPB (pH 7.4) | Partition coefficient K-value, Dex-PEG-NaSCN—NaPB (pH 7.4)
1 | Bovine Insulin | 1.512 ± 0.012 | 0.702 ± 0.024 | 1.848 ± 0.021 | 0.968 ± 0.005 | – | – | – | –
2 | Human Insulin | – | – | – | – | 1.262 ± 0.010 | 0.849 ± 0.014 | 0.776 ± 0.019 | 1.898 ± 0.022
